The source of these data is patent publication US20220354827A1 (priority 2019, published 2022).

The subject of the data set is iPSCs derived immature neurons. To be noted: glutamate 10 mM up to 30 mM, 24 hours; CONTROL, SAD, FAD neurons; dose-dependently.

Turning to glutamate, the “cell viability (MTT reduction)” value was “significant cell damage”.
